Values joined by “and” are separate entries in the source; they are usually repeats but may differ in a detail not shown here. Identical values can stand only once.
Tests used:
[1] = Pharmacokinetics of uFSH and hFSH variant, IV and SC, in female Fisher rats; format: in vivo; details: for CMax: female Fisher rats; for T1/2: terminal elimination half-life; for AUC0–t: time 0 to 24 h
[2] = Colorometric sialic acid assay (extent of uFSH sialylation after spray drying); format: physicochemical; details: intact sialic acid, reconstituted powder or stock
[3] = SE-HPLC of higher order uFSH aggregates before and after spray drying; format: physicochemical; details: by SE-HPLC
[4] = Pre-formulation evaluation: solution stability, freeze-thaw, adsorption to tubing; format: physicochemical; details: first 2 mL of 175 μg/mL solution, silicon tubing 2 m×4.6 mm i.d.

uFSH: FSH derived from human urine (Vitro Diagnostics, Inc.); mixture of hFSH and hFSH analogs
AUC0–∞ ([1]; IV 15 μg/kg): 5373 mIU · h/mL | TMax ([1]; IV 15 μg/kg): 0.1 h | Serum concentration of immunoreactive uFSH / FSH variant ([1]; IV 15.0 μg/kg, 0.08 h, individual rats): 2435 mIU/mL and 2447 mIU/mL and 1894 mIU/mL | Serum concentration of immunoreactive uFSH / FSH variant ([1]; IV 15.0 μg/kg, 0.08 h, mean): 2258 mIU/mL | Serum concentration of immunoreactive uFSH / FSH variant ([1]; IV 15.0 μg/kg, 0.25 h, individual rats): 2992 mIU/mL and 103 mIU/mL and 1223 mIU/mL | Serum concentration of immunoreactive uFSH / FSH variant ([1]; IV 15.0 μg/kg, 0.25 h, mean): 1439 mIU/mL | Serum concentration of immunoreactive uFSH / FSH variant ([1]; IV 15.0 μg/kg, 0.5 h, individual rats): 1604 mIU/mL and 2031 mIU/mL and 1888 mIU/mL | Serum concentration of immunoreactive uFSH / FSH variant ([1]; IV 15.0 μg/kg, 0.5 h, mean): 1841 mIU/mL | Serum concentration of immunoreactive uFSH / FSH variant ([1]; IV 15.0 μg/kg, 1 h, individual rats): 856 mIU/mL and 920 mIU/mL and 645 mIU/mL | Serum concentration of immunoreactive uFSH / FSH variant ([1]; IV 15.0 μg/kg, 1 h, mean): 807 mIU/mL | Serum concentration of immunoreactive uFSH / FSH variant ([1]; IV 15.0 μg/kg, 3 h, individual rats): 477 mIU/mL and 308 mIU/mL and 351 mIU/mL | Serum concentration of immunoreactive uFSH / FSH variant ([1]; IV 15.0 μg/kg, 3 h, mean): 379 mIU/mL | Serum concentration of immunoreactive uFSH / FSH variant ([1]; IV 15.0 μg/kg, 6 h, individual rats): 224 mIU/mL and 198 mIU/mL and 200 mIU/mL | Serum concentration of immunoreactive uFSH / FSH variant ([1]; IV 15.0 μg/kg, 6 h, mean): 207 mIU/mL | Serum concentration of immunoreactive uFSH / FSH variant ([1]; IV 15.0 μg/kg, 9 h, individual rats): 78 mIU/mL and 85 mIU/mL and 109 mIU/mL | Serum concentration of immunoreactive uFSH / FSH variant ([1]; IV 15.0 μg/kg, 9 h, mean): 91 mIU/mL | Serum concentration of immunoreactive uFSH / FSH variant ([1]; IV 15.0 μg/kg, 12 h, individual rats): 84 mIU/mL and 145 mIU/mL and 131 mIU/mL | Serum concentration of immunoreactive uFSH / FSH variant ([1]; IV 15.0 μg/kg, 12 h, mean): 120 mIU/mL | Serum concentration of immunoreactive uFSH / FSH variant ([1]; IV 15.0 μg/kg, 24 h, individual rats): 38 mIU/mL and 24 mIU/mL and 23 mIU/mL | Serum concentration of immunoreactive uFSH / FSH variant ([1]; IV 15.0 μg/kg, 24 h, mean): 28 mIU/mL | CMax ([1]; IV 15 μg/kg): 2258 mIU/mL | T1/2 ([1]; IV 15 μg/kg): 6.8 h | AUC0–t ([1]; IV 15 μg/kg): 5093 mIU · h/mL | AUC0–∞ ([1]; SC 15 μg/kg): 4566 mIU · h/mL | TMax ([1]; SC 15 μg/kg): 6.0 h | Serum concentration of immunoreactive uFSH / FSH variant ([1]; SC 15.0 μg/kg, 0.08 h, individual rats): 5.5 mIU/mL and BQL (2×) | Serum concentration of immunoreactive uFSH / FSH variant ([1]; SC 15.0 μg/kg, 0.08 h, mean): 1.8 mIU/mL | Serum concentration of immunoreactive uFSH / FSH variant ([1]; SC 15.0 μg/kg, 0.25 h, individual rats): BQL and 15.8 mIU/mL and 9.3 mIU/mL | Serum concentration of immunoreactive uFSH / FSH variant ([1]; SC 15.0 μg/kg, 0.25 h, mean): 8.4 mIU/mL | Serum concentration of immunoreactive uFSH / FSH variant ([1]; SC 15.0 μg/kg, 0.5 h, individual rats): 15.4 mIU/mL and 37.2 mIU/mL and 15.2 mIU/mL | Serum concentration of immunoreactive uFSH / FSH variant ([1]; SC 15.0 μg/kg, 0.5 h, mean): 22.6 mIU/mL | Serum concentration of immunoreactive uFSH / FSH variant ([1]; SC 15.0 μg/kg, 1 h, individual rats): 37.9 mIU/mL and 23.8 mIU/mL and 34.8 mIU/mL | Serum concentration of immunoreactive uFSH / FSH variant ([1]; SC 15.0 μg/kg, 1 h, mean): 32.2 mIU/mL | Serum concentration of immunoreactive uFSH / FSH variant ([1]; SC 15.0 μg/kg, 3 h, individual rats): 95 mIU/mL and 139 mIU/mL and 170 mIU/mL | Serum concentration of immunoreactive uFSH / FSH variant ([1]; SC 15.0 μg/kg, 3 h, mean): 135 mIU/mL | Serum concentration of immunoreactive uFSH / FSH variant ([1]; SC 15.0 μg/kg, 6 h, individual rats): 138 mIU/mL and 168.1 mIU/mL and 150.4 mIU/mL | Serum concentration of immunoreactive uFSH / FSH variant ([1]; SC 15.0 μg/kg, 6 h, mean): 152 mIU/mL | Serum concentration of immunoreactive uFSH / FSH variant ([1]; SC 15.0 μg/kg, 9 h, individual rats): 143 mIU/mL and 165 mIU/mL and 117 mIU/mL | Serum concentration of immunoreactive uFSH / FSH variant ([1]; SC 15.0 μg/kg, 9 h, mean): 142 mIU/mL | Serum concentration of immunoreactive uFSH / FSH variant ([1]; SC 15.0 μg/kg, 12 h, individual rats): 126 mIU/mL and 144 mIU/mL and 153 mIU/mL | Serum concentration of immunoreactive uFSH / FSH variant ([1]; SC 15.0 μg/kg, 12 h, mean): 141 mIU/mL | Serum concentration of immunoreactive uFSH / FSH variant ([1]; SC 15.0 μg/kg, 24 h, individual rats): 75.4 mIU/mL and 70.1 mIU/mL and 74.5 mIU/mL | Serum concentration of immunoreactive uFSH / FSH variant ([1]; SC 15.0 μg/kg, 24 h, mean): 73.3 mIU/mL | CMax ([1]; SC 15 μg/kg): 152 mIU/mL | T1/2 ([1]; SC 15 μg/kg): 16.4 h | AUC0–t ([1]; SC 15 μg/kg): 2767 mIU · h/mL | Sialic Acid [2]: 297 ± 15 nmol/mg protein | higher order aggregates in bulk drug substance [3]: < 0.8% | uFSH adsorption to the tubing [4]: 10 µg
